Data as given in paper PMC8667020.

B1: ASC-YFP [human] / itself (parent)
chain: MGRARDAILDALENLTAEELKKFKLKLLSVPLREGYGRIPRGALLSMDALDLTDKLVSFYLETYGAELTANVLRDMGLQEMAGQLQAATHQGSGAAPAGIQAPPQSAAKPGLHFIDQHRAALIARVTNVEWLLDALYGKVLTDEQYQAVRAEPTNPSKMRKLFSFTPAWNWTCKDLLLQALRESQSYLVEDLERS

Variants of: B1
Test: flow cytometry of ASC-YFP speck formation in transfected HEK293 cells
Conditions: with itself, read off a plot

Row | screen value [%] | Variant
1 | 22 | chain 1 W169A
2 | 24 | chain 1 K174A
3 | 17 | chain 1 L192A
4 | 34 | chain 1 L177A L178A
5 | 20 | chain 1 R119A
6 | 28 | chain 1 H118A
